Data as given in publication PMC6546432.

Assays:
Experiment in all cases: non-reducing SDS-PAGE and western blot; conditioned media of transfected HeLa cells; no beta-mercaptoethanol; anti-HA, LI-COR
[1] = molecular target: human A55T HA-tagged retinol-binding protein (^HARBP) (human) (UniProt P02753)
[2] = molecular target: human E13del HA-tagged retinol-binding protein (^HARBP) (human) (UniProt P02753)
[3] = molecular target: human G75D HA-tagged retinol-binding protein (^HARBP) (human) (UniProt P02753)
[4] = molecular target: human I41N HA-tagged retinol-binding protein (^HARBP) (human) (UniProt P02753)
[5] = molecular target: human K12del HA-tagged retinol-binding protein (^HARBP) (human) (UniProt P02753)
[6] = molecular target: human wild-type HA-tagged retinol-binding protein (^HARBP) (human) (UniProt P02753)

Substance: human A55T HA-tagged retinol-binding protein (^HARBP) (from UniProt P02753 19-201) (natural protein)
- percent dimers [1]: < 1%

Substance: human I41N HA-tagged retinol-binding protein (^HARBP) (from UniProt P02753 19-201) (natural protein)
- percent dimers [4]: > 85%

Substance: human K12del HA-tagged retinol-binding protein (^HARBP) (from UniProt P02753 19-201) (natural protein)
- percent dimers [5]: > 85%

Substance: human wild-type HA-tagged retinol-binding protein (^HARBP) (from UniProt P02753 19-201) (natural protein)
- percent dimers [6]: < 1%

Results, then the substance that gave them:

- percent dimers [2]: > 85%
Substance: human E13del HA-tagged retinol-binding protein (^HARBP) (from UniProt P02753 19-201) (natural protein)

- percent dimers [3]: > 85%
Substance: human G75D HA-tagged retinol-binding protein (^HARBP) (from UniProt P02753 19-201) (natural protein)

Each block holds one substance with its values, some of them ahead of it.
